Antibody variant affinities, Ab-14 light chain, assay B

From the AlphaSeq antibody data of Li et al. 2023 (doi:10.1038/s41467-023-39022-2), copy in the FLAb collection.

Target: peptide PDVDLGDISGINAS, taken from heptad repeat 2 (HR2) of SARS-CoV-2 spike.

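This is the validation round: designs drawn from the data on random variants, tested in the same kind of assay. Group labels follow the data file (Ctrl: baseline library sampled from a position-specific scoring matrix, with some repeated check sequences; Rand: our label for a block that the file lists under HC and that is probably the random mutants of the ten best first-round binders; En: ensemble of fine-tuned language models; GP: Gaussian process model; HC: hill climbing; Gen: genetic algorithm; Gibbs: Gibbs sampling; a sequence that several methods proposed may carry one label only). The scFvs were displayed on barcoded MATa yeast, the peptide on MATalpha yeast. The frequency of each diploid, read from paired DNA barcodes, reflects how well the two displayed proteins bind. The ratio of observed to expected reads was calibrated, replicate by replicate, on BCL2-family standards whose Kd was known from biolayer interferometry. There are six technical replicates.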

Each scFv is VH, three GGGGS repeats, VL, as in the parent Ab-14, and differs from it in the CDRs of the light chain only.
VH: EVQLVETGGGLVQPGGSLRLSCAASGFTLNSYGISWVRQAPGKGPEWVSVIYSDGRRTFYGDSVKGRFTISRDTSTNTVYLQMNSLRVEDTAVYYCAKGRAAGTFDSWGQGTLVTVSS
VL: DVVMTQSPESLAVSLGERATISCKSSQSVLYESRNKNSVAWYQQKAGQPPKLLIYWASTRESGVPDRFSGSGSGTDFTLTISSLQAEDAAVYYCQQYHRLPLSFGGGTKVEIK

Each variant's VL is given in full.
Numbers give log10(Kd / nM), so 0 is 1 nM and 3 is 1 µM. Smaller is tighter.
The mean shown is taken over the replicates in which the pair was detected.
An entry "nd" has no value in the source: the pair was not observed among the diploids in that replicate. This suggests poor binding but is not conclusive.
Order: sorted from the lowest average up, undetected variants last.
Background: pairings of all light chain designs with three empty control strains gave a value in 4% of cases (median 2.64, 5th percentile 1.59). Values in that range, when seen in few replicates, are hard to tell from nonspecific mating. For each scFv, signals with the empty controls are counted beside the result, with their mean in brackets.
A sequence measured in both rounds can read differently, since the two assays cover different ranges.
The parent sequence was in this pool as ten entries: three were never detected, three once, and four in most replicates, with averages from 0.34 to 2.37.
The authors averaged sequences with at least three values out of six and counted those with two or fewer as poor binders.

| # | log10 Kd (nM) by replicate | log10 Kd (nM), mean | empty controls | VL | group |
|---|---|---|---|---|---|
| 1 | -0.32 -0.48 -0.37 -0.57 -0.61 -0.44 | -0.46 | 1/18 (2.92) | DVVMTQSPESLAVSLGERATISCKVSQSWLYESRNKNNVAWYQQKAGQPPKLLIYDASTRESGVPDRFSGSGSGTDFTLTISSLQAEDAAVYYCQQYHRLPLSFGGGTKVEIK | GP_Gen |
| 2 | -0.10 -0.37 -0.45 -0.24 -0.55 -0.31 | -0.34 | 0/18 | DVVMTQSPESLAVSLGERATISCKVPQSWLYESRNKNSVAWYQQKAGQPPKLLIYNASTRESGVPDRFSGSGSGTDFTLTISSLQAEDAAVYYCQQYHRLPLSFGGGTKVEIK | GP_Gen |
| 3 | -0.14 -0.28 -0.31 -0.34 -0.41 -0.11 | -0.26 | 2/18 (2.93) | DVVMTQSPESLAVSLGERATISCKLRQSMLYESRNKNSVAWYQQKAGQPPKLLIYNASQRESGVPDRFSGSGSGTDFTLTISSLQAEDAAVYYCQQYHRLPLSFGGGTKVEIK | GP_Gen |
| 4 | -0.06 -0.15 -0.26 -0.11 -0.14 0.06 | -0.11 | 2/18 (2.42) | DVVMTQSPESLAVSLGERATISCKFSQSVLYESRTKNGVAWYQQKAGQPPKLLIYNGSTRESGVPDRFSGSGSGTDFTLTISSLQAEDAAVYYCQQYHRLPLSFGGGTKVEIK | GP_HC |
| 5 | 0.37 0.60 0.14 -0.01 0.12 0.20 | 0.24 | 1/18 (3.61) | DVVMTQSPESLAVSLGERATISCKLQQSWEYESRNKNSVAWYQQKAGQPPKLLIYHASTRESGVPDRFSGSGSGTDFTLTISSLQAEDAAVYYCQQYHRLPLSFGGGTKVEIK | GP_HC |
| 6 | 0.27 0.54 0.32 -0.09 0.03 0.49 | 0.26 | 0/18 | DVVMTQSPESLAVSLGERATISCKVHQSWLYESRQINSVAWYQQKAGQPPKLLIYNASQRCSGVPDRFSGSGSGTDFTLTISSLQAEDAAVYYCQQYHRLPLSFGGGTKVEIK | GP_Gibbs |
| 7 | 0.47 0.31 0.31 0.10 0.15 0.38 | 0.29 | 1/18 (3.76) | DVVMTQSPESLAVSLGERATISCKSSSEVLYESRNKNSVAWYQQKAGQPPKLLIYHASTRESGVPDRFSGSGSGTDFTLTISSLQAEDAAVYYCQQYHRLPLSFGGGTKVEIK | Ctrl |
| 8 | 0.39 0.49 0.23 0.48 0.35 0.43 | 0.40 | 1/18 (2.98) | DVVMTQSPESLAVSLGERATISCHMKDMPGFGPQTYSSIAWYQQKAGQPPKLLIYHAEIREPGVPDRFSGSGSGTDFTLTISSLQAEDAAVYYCQQYYRLPLMFGGGTKVEIK | En_Gibbs |
| 9 | 0.53 0.53 0.15 0.51 0.32 0.67 | 0.45 | 2/18 (2.93) | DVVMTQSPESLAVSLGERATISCTLTQSHGMESHNKNSVAWYQQKAGQPPKLLIYDLSTRGSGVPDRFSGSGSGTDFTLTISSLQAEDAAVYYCQQYHRLPLSFGGGTKVEIK | En_HC |
| 10 | 0.39 0.62 0.48 0.20 0.26 0.82 | 0.46 | 1/18 (3.06) | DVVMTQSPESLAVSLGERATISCLSSISYLYESANKNSVAWYQQKAGQPPKLLIYEASTRESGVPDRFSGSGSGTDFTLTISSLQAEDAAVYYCQQYHRLPLSFGGGTKVEIK | GP_HC |
| 11 | nd 0.40 nd 0.56 nd nd | 0.48 | 0/18 | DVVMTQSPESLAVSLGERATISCHISHSVGMTSRNKNSVAWYQQKAGQPPKLLIYENSTREDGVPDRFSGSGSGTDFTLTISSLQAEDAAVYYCQQYDRLPLSFGGGTKVEIK | En_HC |
| 12 | 0.75 0.91 0.57 0.74 0.30 0.47 | 0.62 | 1/18 (2.18) | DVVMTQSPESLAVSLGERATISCKSPFSVYYGERNKNSVAWYQQKAGQPPKLLIYQASTRESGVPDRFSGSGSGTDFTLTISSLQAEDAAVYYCQQYHRLPLSFGGGTKVEIK | GP_Gibbs |
| 13 | 0.55 0.82 0.58 0.87 0.31 0.65 | 0.63 | 0/18 | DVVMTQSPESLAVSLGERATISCKSSQSDLYEERNKNSVAWYQQKAGQPPKLLIYGASTRESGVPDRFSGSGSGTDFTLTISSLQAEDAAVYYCQHSHRLPLSFGGGTKVEIK | Ctrl |
| 14 | 0.97 0.56 0.73 0.46 0.70 1.00 | 0.74 | 1/18 (3.97) | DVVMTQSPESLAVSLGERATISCKSSQSFLYESRWKNSVAWYQQKAGQPPKLLIYEASQRESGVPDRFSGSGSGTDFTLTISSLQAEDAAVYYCQQYHRLPLSFGGGTKVEIK | GP_HC |
| 15 | 1.21 0.82 1.44 0.67 0.74 0.79 | 0.94 | 1/18 (2.60) | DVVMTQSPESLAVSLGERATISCKLKQSELYESRNKNSVAWYQQKAGQPPKLLIYEASTRESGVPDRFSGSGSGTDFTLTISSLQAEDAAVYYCQQYHRLPLSFGGGTKVEIK | GP_Gen |
| 16 | 1.21 1.24 0.99 0.84 0.94 0.83 | 1.01 | 0/18 | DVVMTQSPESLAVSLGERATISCKLSMTMELEHVSRNSVAWYQQKAGQPPKLLIYELVTRMSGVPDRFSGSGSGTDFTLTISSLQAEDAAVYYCQQYNRLPLSFGGGTKVEIK | En_Gen |
| 17 | 0.95 0.84 0.94 1.53 0.99 0.97 | 1.04 | 1/18 (2.35) | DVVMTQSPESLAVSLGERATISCKSLQSVLYESRNKNSVAWYQQKAGQPPKLLIYHASTREDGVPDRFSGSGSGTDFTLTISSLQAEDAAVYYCQQYHRLPMSFGGGTKVEIK | Rand |
| 18 | nd nd 0.93 1.72 1.70 nd | 1.45 | 0/18 | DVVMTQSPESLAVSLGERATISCMISQVMNTLTREGNNVAWYQQKAGQPPKLLIYDLEERERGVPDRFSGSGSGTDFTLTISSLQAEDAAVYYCQQYFRLPLSFGGGTKVEIK | En_Gen |
| 19 | 2.10 1.23 1.53 1.65 1.07 1.22 | 1.47 | 1/18 (1.90) | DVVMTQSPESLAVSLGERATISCMLDEYQMYDAANLNAIAWYQQKAGQPPKLLIYDANCTMPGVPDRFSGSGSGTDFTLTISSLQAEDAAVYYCQQYYSLPLSFGGGTKVEIK | En_Gibbs |
| 20 | nd 1.13 nd 3.39 2.36 1.42 | 2.07 | 1/18 (1.16) | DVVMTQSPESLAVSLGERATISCKSSQSVLFESNNPNSVAWYQQKAGQPPKLLIYWASTRESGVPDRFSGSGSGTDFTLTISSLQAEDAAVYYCQQYHRLPLSFGGGTKVEIK | Ctrl |
| 21 | 1.74 2.25 nd 2.07 3.18 1.69 | 2.19 | 0/18 | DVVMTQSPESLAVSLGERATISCMLSQMTGLGMKVSNSVAWYQQKAGQPPKLLIYQASMRFNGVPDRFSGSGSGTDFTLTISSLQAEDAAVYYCQQYHRLPLIFGGGTKVEIK | En_Gen |
| 22 | nd nd nd nd nd nd | nd | 0/18 | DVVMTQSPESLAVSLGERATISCKIQWYPLEFRGTIQAVAWYQQKAGQPPKLLIYEAATRYNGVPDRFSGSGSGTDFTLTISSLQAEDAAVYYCQQYMRLPLMFGGGTKVEIK | En_Gibbs |
| 23 | nd nd nd nd nd nd | nd | 1/18 (2.55) | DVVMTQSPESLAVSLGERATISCHSSQSVLVESRNKNSVAWYQQKAGQPPKLLIYWASTRESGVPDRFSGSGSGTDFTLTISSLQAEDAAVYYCQRYHRAPLSFGGGTKVEIK | Ctrl |
| 24 | nd nd nd nd nd nd | nd | 0/18 | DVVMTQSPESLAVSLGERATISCIVSQLMLWGYHATNSIAWYQQKAGQPPKLLIYEAQMRLNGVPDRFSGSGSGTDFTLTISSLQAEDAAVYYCQQYDRLPLFFGGGTKVEIK | En_Gen |
| 25 | nd nd nd nd nd nd | nd | 0/18 | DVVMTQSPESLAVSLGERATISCKLQQQAEYESRVKNSVAWYQQKAGQPPKLLIYQASTRESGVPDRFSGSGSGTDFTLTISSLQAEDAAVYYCQQYHRLPLSFGGGTKVEIK | GP_Gibbs |

The last 4 entries again:

{"VL": "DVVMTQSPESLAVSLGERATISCKIQWYPLEFRGTIQAVAWYQQKAGQPPKLLIYEAATRYNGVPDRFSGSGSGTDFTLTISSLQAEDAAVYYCQQYMRLPLMFGGGTKVEIK", "group": "En_Gibbs", "log10 Kd (nM) by replicate": "nd nd nd nd nd nd", "log10 Kd (nM), mean": "nd", "empty controls": "0/18"}
{"VL": "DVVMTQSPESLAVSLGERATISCHSSQSVLVESRNKNSVAWYQQKAGQPPKLLIYWASTRESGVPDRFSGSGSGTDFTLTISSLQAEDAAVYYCQRYHRAPLSFGGGTKVEIK", "group": "Ctrl", "log10 Kd (nM) by replicate": "nd nd nd nd nd nd", "log10 Kd (nM), mean": "nd", "empty controls": "1/18 (2.55)"}
{"VL": "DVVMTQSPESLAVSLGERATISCIVSQLMLWGYHATNSIAWYQQKAGQPPKLLIYEAQMRLNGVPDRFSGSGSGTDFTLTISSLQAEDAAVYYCQQYDRLPLFFGGGTKVEIK", "group": "En_Gen", "log10 Kd (nM) by replicate": "nd nd nd nd nd nd", "log10 Kd (nM), mean": "nd", "empty controls": "0/18"}
{"VL": "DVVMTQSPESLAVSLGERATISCKLQQQAEYESRVKNSVAWYQQKAGQPPKLLIYQASTRESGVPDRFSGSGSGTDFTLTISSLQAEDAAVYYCQQYHRLPLSFGGGTKVEIK", "group": "GP_Gibbs", "log10 Kd (nM) by replicate": "nd nd nd nd nd nd", "log10 Kd (nM), mean": "nd", "empty controls": "0/18"}